How the values were obtained:
huSTING (HAQ) = huSTING (HAQ) (Homo sapiens (Human), UniProt Q86WV6, G230A/H232R/R293Q/R71H); assay: THP-1 reporter cell line assay, THP-1 STING Lucia ISG cells; format: cell-based; conditions: 24 h, top concentration 50 μM, read-out: Cellular EC50 huSTING (HAQ)
huSTING (WT) = huSTING (WT) (Homo sapiens (Human), UniProt Q86WV6, H232R); assay: THP-1 reporter cell line assay, THP-1-Dual KI-hSTING-R232 cells; format: cell-based; conditions: 24 h, top concentration 50 μM, read-out: Cellular EC50 huSTING (WT)
human STING (HAQ) = human STING (HAQ) (Homo sapiens, UniProt Q86WV6, G230A/H232R/R293Q); conditions: read-out: SPR (HAQ) KD; 25° C.

Protein sequences, listed by entry. Tags and fused reporters are not part of them.
UniProt Q86WV6, whole entry R71H/G230A/H232R/R293Q: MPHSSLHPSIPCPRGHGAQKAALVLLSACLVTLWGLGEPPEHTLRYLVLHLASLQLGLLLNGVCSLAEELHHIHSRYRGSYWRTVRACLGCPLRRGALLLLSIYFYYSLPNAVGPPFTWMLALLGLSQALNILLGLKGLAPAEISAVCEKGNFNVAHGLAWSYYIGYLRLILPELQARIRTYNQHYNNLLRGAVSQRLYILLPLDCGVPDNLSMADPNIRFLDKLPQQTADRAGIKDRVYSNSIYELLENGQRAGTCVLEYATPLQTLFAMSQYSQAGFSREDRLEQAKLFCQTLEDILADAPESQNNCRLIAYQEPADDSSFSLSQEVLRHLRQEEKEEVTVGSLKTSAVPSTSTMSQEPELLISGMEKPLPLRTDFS
UniProt Q86WV6, whole entry H232R: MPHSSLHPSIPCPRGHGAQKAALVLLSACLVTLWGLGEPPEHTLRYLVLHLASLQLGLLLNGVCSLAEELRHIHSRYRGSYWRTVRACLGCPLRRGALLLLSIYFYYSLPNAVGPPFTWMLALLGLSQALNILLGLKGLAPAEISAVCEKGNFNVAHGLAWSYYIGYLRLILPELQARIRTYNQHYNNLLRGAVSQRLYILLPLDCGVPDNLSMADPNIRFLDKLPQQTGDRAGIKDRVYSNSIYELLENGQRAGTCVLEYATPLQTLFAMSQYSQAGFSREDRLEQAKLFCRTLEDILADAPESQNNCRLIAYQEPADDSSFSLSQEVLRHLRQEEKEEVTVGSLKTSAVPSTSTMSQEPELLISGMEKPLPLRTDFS
UniProt Q86WV6, whole entry G230A/H232R/R293Q, looked up: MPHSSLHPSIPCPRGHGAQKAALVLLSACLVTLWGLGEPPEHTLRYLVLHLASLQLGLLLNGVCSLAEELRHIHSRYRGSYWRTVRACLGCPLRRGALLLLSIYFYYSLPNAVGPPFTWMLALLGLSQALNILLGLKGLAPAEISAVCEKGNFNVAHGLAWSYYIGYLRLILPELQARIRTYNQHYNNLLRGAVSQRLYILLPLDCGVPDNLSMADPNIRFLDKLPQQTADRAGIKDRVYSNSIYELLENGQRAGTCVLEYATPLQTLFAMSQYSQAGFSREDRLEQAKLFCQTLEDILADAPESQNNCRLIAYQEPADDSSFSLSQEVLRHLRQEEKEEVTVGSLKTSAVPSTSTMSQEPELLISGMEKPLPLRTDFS

Compound | EC50 (huSTING (HAQ)) | EC50 (huSTING (WT)) | Kd (human STING (HAQ))
NC(=O)c1ccc(OCc2c(C(=O)O)sc3cccc(Cl)c23)cc1 [Example 8, 3-((4-Carbamoylphenoxy)methyl)-4-chlorobenzo[b]thiophene-2-carboxylic acid] | > 50 µM | > 50 µM | 1.05 µM
NC(=O)c1cc(F)c(OCc2c(C(=O)O)sc3cccc(Cl)c23)c(F)c1 [Example 69, 3-((4-Carbamoyl-2,6-difluorophenoxy)methyl)-4-chlorobenzo[b]thiophene-2-carboxylic acid] | 16.5 µM | 42.7 µM | 0.0886 µM
